Data from article PMC5854577, “A common mechanism of proteasome impairment by neurodegenerative disease-associated oligomers” (Nature Communications, 2018).

Legend:
[1] = target: mammalian 20S proteasome (bovine liver) (bovine (purified from bovine liver))
[2] = target: mammalian 20S proteasome (bovine liver) (bovine (purified from bovine liver)); remark: listed apart in the source

- IC50 of 20S proteasome activity with up to 5 μM Aβ-iO (Fig. 1d) [1]: 0.2 µM
- IC50 of 20S proteasome activity with up to 5 μM Aβ-iO (Fig. 1d) [2]: 0.25 µM
Substance: intermediate-sized Aβ oligomers (Aβ-iO) (from UniProt P05067 672-713) (complex)

Like-named read-outs stand apart in the source and are kept apart here.
